Here are results for three compounds from publication PMC6727465, “Discovery of 2-phenoxyacetamides as inhibitors of the Wnt-depalmitoleating enzyme NOTUM from an X-ray fragment screen” (MedChemComm, 2019).

Usually IC50 stands for the midpoint of a concentration-inhibition curve.

Each structure is given as a SMILES string.

For the experiment, the target named is T1, NOTUM(81-451 Cys330Ser) (Homo sapiens, UniProt Q6P988, C330S).
T1 sequence (Q6P988 81-451 C330S): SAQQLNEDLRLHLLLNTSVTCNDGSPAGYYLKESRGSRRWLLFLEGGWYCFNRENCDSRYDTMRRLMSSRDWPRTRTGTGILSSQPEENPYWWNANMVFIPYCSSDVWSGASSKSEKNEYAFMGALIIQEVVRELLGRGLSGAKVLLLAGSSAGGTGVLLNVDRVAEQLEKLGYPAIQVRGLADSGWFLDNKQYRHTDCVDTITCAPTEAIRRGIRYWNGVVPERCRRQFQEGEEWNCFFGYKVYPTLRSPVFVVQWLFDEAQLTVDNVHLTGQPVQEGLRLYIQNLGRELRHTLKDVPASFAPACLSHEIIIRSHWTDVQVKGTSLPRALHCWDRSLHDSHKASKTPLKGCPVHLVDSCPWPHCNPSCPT
As to the kind of experiment: biochemical.
With `Cc1ccccc1CCC(=O)Nc1cccnc1` [Compound 6], the IC50 worked out at 140000 nM.

`Cc1ccccc1OCC(=O)Nc1ccc2cc[nH]c2c1` [Compound 26] yielded an IC50 of 210 nM.

In turn, `Cc1ccccc1OCC(=O)Nc1ccc2nccnc2c1` [Compound 27] returned an IC50 of 680 nM.
